Measurements taken from ChEMBL document CHEMBL4229387, “Recent progress of the development of dipeptidyl peptidase-4 inhibitors for the treatment of type 2 diabetes mellitus” (Eur J Med Chem, 2018).

By UniProt entry, the sequences of proteins in these tests, tags left out.
UniProt P27487, whole entry: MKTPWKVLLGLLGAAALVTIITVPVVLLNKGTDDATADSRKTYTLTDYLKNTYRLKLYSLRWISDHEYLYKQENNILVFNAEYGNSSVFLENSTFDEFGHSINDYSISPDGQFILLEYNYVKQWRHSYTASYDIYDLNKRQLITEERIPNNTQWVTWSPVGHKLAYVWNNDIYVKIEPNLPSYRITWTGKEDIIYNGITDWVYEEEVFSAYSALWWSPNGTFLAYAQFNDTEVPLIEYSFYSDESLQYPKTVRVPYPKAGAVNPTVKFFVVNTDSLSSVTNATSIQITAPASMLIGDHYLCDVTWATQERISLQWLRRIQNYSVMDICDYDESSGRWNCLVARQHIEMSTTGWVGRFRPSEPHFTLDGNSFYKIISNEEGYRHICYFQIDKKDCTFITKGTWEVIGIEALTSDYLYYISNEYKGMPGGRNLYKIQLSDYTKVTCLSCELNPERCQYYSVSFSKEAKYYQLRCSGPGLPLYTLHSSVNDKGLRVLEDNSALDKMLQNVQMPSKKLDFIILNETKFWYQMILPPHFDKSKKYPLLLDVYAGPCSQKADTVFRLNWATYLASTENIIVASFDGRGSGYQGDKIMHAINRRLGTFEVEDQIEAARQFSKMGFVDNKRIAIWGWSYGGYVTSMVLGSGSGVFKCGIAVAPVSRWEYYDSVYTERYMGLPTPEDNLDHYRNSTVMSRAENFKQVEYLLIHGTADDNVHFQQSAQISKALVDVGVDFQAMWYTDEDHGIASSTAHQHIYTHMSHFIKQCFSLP

Target: Dipeptidyl peptidase 4 (Homo sapiens, UniProt P27487)
Experiment: Inhibition of DPP4 (unknown origin) using Gly-Pro-AMC as substrate preincubated for 4 secs followed by substrate addition and measured after 30 mins by […] assay

## CC[C@H](C)[C@H](N)C(=O)N1CCC[C@H]1C(=O)N[C@H](C(=O)O)[C@@H](C)CC [DIPROTIN A]
  IC50: 4.21 µM
